Drawing on patent publication US8022203B2, “Amino derivatives of beta-homoandrostanes and beta-heteroandrostanes” (Sigma-Tau Industrie Farmaceutiche Riunite S.p.A., priority 2006, dated 2011), this text covers IC50 for 3 compounds.

This assay concerns the target Na^+,K^+-ATPase (Canis lupus familiaris, UniProt P50997). The experiment in a line: Dog kidney Na+,K+-ATPase inhibition (hydrolysis of 32P-ATP). Type of assay: biochemical. The settings on record: read-out: Na^+,K^+-ATPase Inhibition IC50; dog kidney enzyme.
In the case of `CC12CCC3C(CC(=NO)NC4CC(=NOC5CCNC5)CCC43C)C1CCC2=O` (stereo not drawn), the IC50 worked out at 5.9 µM.

Take `CNCCCON=C1CCC2(C)C(C1)NC(=NO)CC1C3CCC(=O)C3(C)CCC12` (stereo not drawn): the IC50 is 7.5 µM.

Take `CC12CCC3C(CC(=NO)NC4CC(=NOCCN)CCC43C)C1CCC2=O` (stereo not drawn): the IC50 was 18 µM.

What is called IC50 is the concentration needed to halve the response being measured.
